# Measured values published in patent US20060106106A1, “Beta-hydroxyphenylalkylamines and their use for treating glaucoma” (priority 2002, published 2006).
# The chains behind the UniProt entries cited, without tags or fusion partners.
# UniProt P14842, whole entry: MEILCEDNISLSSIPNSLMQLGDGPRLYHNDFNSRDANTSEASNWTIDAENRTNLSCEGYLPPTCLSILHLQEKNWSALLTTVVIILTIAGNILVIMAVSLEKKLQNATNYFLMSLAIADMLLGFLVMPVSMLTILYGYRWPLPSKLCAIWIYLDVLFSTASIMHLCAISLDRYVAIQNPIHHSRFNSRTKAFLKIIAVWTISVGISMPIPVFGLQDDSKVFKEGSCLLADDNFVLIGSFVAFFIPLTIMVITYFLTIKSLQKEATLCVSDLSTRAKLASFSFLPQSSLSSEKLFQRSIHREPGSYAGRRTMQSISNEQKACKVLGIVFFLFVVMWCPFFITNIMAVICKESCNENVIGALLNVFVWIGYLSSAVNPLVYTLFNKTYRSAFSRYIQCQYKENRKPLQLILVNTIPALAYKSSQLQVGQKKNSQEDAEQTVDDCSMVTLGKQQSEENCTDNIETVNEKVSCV
# Target: T1, 5-HT2A (Rattus norvegicus, UniProt P14842)
# T1 construct: [^3H]myo-inositol-labeled A7r5 rat vascular smooth muscle cells; endogenous in cells; host or cells: A7r5 rat vascular smooth muscle cells
# Assay: 5-HT2 Functional Assay: [Ca2+]i Mobilization (FLIPR) in A7r5 cells
# Type: cell-based
# Settings: for Emax: A7r5 cells, FLIPR, percentage of maximum 5-HT-induced response, read-out: 5-HT2A % Emax (Ca+2 Assay)
# Procedure: 5-HT2 Functional Assay: [Ca^2+]i Mobilization
# The receptor-mediated mobilization on intracellular calcium ([Ca^2+]i) was studied using the Fluorescence Imaging Plate Reader (FLIPR) instrument. Rat vascular smooth muscle cells, A7r5, were grown in a normal media of DMEM/10% FBS and 10 μg/mL gentamycin. Confluent cell monolayers were trypsinized, pelleted, and re-suspended in normal media. Cells were seeded in a 50 μL volume at a density of 20,000 cells/well in a black wall, 96-well tissue culture plate and grown for 2 days.
# On the day of the experiment, one vial of FLIPR Calcium Assay Kit dye was re-suspended in 50 mL of a FLIPR buffer consisting of Hank's Balanced Salt Solution (HBSS), 20 mM HEPES, and 2.5 mM probenecid, pH 7.4. Cells were loaded with the calcium-sensitive dye by addition of an equal volume (50 μL) to each well of the 96-well plate and incubated with dye for 1 h at 23° C.
# Compounds were diluted 1:50 in 20% DMSO/20% Ethanol. For “hit” screening, compounds were further diluted 1:10 in FLIPR buffer and tested at a final concentration of 10 μM.
# The compound plate and cell plate were placed in the FLIPR instrument. At the beginning of an experimental run, a signal test was performed to check the basal fluorescence signal from the dye-loaded cells and the uniformity of the signal across the plate. The basal fluorescence was adjusted between 8000-12000 counts by modifying the exposure time, the camera F-stop, or the laser power. Instrument settings for a typical assay were the following: laser power 0.3-0.6 W, camera F-stop F/2, and exposure time 0.4 sec. An aliquot (25 μL) of the test compound was added to the existing 100 μL dye-loaded cells at a dispensing speed of 50 μL/sec. Fluorescence data were collected in real-time at 1.0 sec intervals for the first 60 secs and at 6.0 sec intervals for an additional 120 secs. Responses were measured as peak fluorescence intensity minus basal and where appropriate were expressed as a percentage of a maximum 5-HT-induced response.
Compound,Emax,EC50
"CC(N)C(O)c1ccccc1 (stereo not shown) [Compound 2, reference compound]",1.2%,–
"C[C@H](N)C(O)c1ccccc1 (stereo partly shown) [Compound 3, reference compound]",1.9%,–
"COc1cc(C[C@@H](C)N)c(OC)cc1Br [Compound 4, DOB, reference compound]",51%,17.5 nM
